{"source": "patent US8828401B2", "about": "“Cytotoxic peptides and antibody drug conjugates thereof” (Pfizer Inc., priority 2011, dated 2014)", "molecules": {"B1": {"name": "hu75-vc6780 (conjugate)", "heavy": "EVQLVESGGGLVQPGGSLRLSCAASGYAFTDYWMTWVRQAPGKGLEWVAEISPNSGGTNFNEKFKGRFTISVDNAKNSLYLQMNSLRAEDTAVYYCARGEIRYNWFAYWGQGTLVTVSSASTKGPSVFPLAPSSKSTSGGTAALGCLVKDYFPEPVTVSWNSGALTSGVHTFPAVLQSSGLYSLSSVVTVPSSSLGTQTYICNVNHKPSNTKVDKKV[human IgG1 Fc left out]", "light": "DIQMTQSPSSLSASVGDRVTITCKASQNVGNNIAWYQQKPGKAPKLLIYYASNRYTGVPSRFSGSGYGTDFTLTISSLQPEDFATYYCQRLYNSPFTFGGGTKVEIKRTVAAPSVFIFPPSDEQLKSGTASVVCLLNNFYPREAKVQWKVDNALQSGNSQESVTEQDSKDSTYSLSSTLTLSKADYEKHKVYACEVTHQGLSSPVTKSFNRGEC"}}, "key": {"N87 gastric xenografts": {"system": "N87 gastric xenografts", "assay": "N87 gastric xenografts with anti-Notch ADCs", "assay_type": "in vivo, nude (Nu/Nu) female mice", "settings": "for tumor volume (mm^3 ± SEM): vc6780 study", "method": "(§1) Humanized anti-Notch antibodies, hu28 and hu75, and rat-human chimeric anti-Notch antibodies, ch28 and ch75, were conjugated to various linker-payload combinations and tested in 37622A1 non-small cell lung cancer (NSCLC), HCC2429 lung cancer, MDA-MB-468 breast cancer and N87 gastric cancer xenograft models. For each model described below the first dose was given on Day 0. The tumors were measured at least once a week and their volume was calculated with the formula: tumor volume (mm^3)=0.5×(tumor width^2)(tumor length). The mean tumor volumes (±S.E.M.) for each treatment group were calculated having a maximum of 10 animals and a minimum of 6 animals to be included.\nSimilar in vivo experiments were performed with the N87 gastric cancer cell line as described above. […] When the tumors reached a volume of 250 to 450 mm^3, the tumors were staged to ensure uniformity of the tumor mass among various treatment groups. The N87 gastric model was dosed intraveneously Q4dx4 with PBS vehicle, humanized anti-Notch ADCs, control huNeg-8.8 ADCs and cisplatin at the doses provided in Tables 16 and 17."}, "[1]": {"system": "MDA-MB-468 breast xenografts", "assay": "MDA-MB-468 breast xenografts with anti-Notch ADCs", "assay_type": "in vivo, female SCID Hairless Outbred (SHO) mice", "settings": "humanized ADCs; Q4dx4, doses of Tables 14 and 15", "method": "as §1\nSimilar in vivo experiments were performed with the MDA-MB-468 breast cancer cell line as described above. […] To generate xenografts, female SCID Hairless Outbred (SHO) mice were orthotopically implanted with 10×10^6 MDA-MB-468 cells containing 50% Matrigel (BD Biosciences) in the mammary fat pad. When the tumors reached a volume of 250 to 450 mm^3, the tumors were staged to ensure uniformity of the tumor mass among various treatment groups. The MDA-MB-468 breast model was dosed intraveneously Q4dx4 with PBS vehicle, humanized anti-Notch ADCs and control huNeg-8.8 ADCs at the doses provided in Tables 14 and 15."}}, "data": [{"molecule": "B1", "values": [{"measurement": "effect on growth of N87 gastric xenografts (in words)", "setting": "N87 gastric xenografts; humanized ADCs, Q4dx4, doses of Tables 16 and 17", "value": "inhibited growth of N87 gastric xenografts in a dose-dependent manner"}, {"measurement": "tumor volume (mm^3 ± SEM)", "setting": "N87 gastric xenografts; Dose 1 mg/kg Q4dx4 iv, DAY 0", "value": "359 ± 16", "unit": "mm^3"}, {"measurement": "tumor volume (mm^3 ± SEM)", "setting": "N87 gastric xenografts; Dose 1 mg/kg Q4dx4 iv, DAY 4", "value": "552 ± 40", "unit": "mm^3"}, {"measurement": "tumor volume (mm^3 ± SEM)", "setting": "N87 gastric xenografts; Dose 1 mg/kg Q4dx4 iv, DAY 8", "value": "568 ± 62", "unit": "mm^3"}, {"measurement": "tumor volume (mm^3 ± SEM)", "setting": "N87 gastric xenografts; Dose 1 mg/kg Q4dx4 iv, DAY 11", "value": "591 ± 63", "unit": "mm^3"}, {"measurement": "tumor volume (mm^3 ± SEM)", "setting": "N87 gastric xenografts; Dose 1 mg/kg Q4dx4 iv, DAY 14", "value": "666 ± 77", "unit": "mm^3"}, {"measurement": "tumor volume (mm^3 ± SEM)", "setting": "N87 gastric xenografts; Dose 1 mg/kg Q4dx4 iv, DAY 18", "value": "642 ± 90", "unit": "mm^3"}, {"measurement": "tumor volume (mm^3 ± SEM)", "setting": "N87 gastric xenografts; Dose 1 mg/kg Q4dx4 iv, DAY 21", "value": "710 ± 117", "unit": "mm^3"}, {"measurement": "tumor volume (mm^3 ± SEM)", "setting": "N87 gastric xenografts; Dose 1 mg/kg Q4dx4 iv, DAY 25", "value": "748 ± 138", "unit": "mm^3"}, {"measurement": "tumor volume (mm^3 ± SEM)", "setting": "N87 gastric xenografts; Dose 1 mg/kg Q4dx4 iv, DAY 28", "value": "763 ± 145", "unit": "mm^3"}, {"measurement": "tumor volume (mm^3 ± SEM)", "setting": "N87 gastric xenografts; Dose 1 mg/kg Q4dx4 iv, DAY 33", "value": "991 ± 239", "unit": "mm^3"}, {"measurement": "tumor volume (mm^3 ± SEM)", "setting": "N87 gastric xenografts; Dose 3 mg/kg Q4dx4 iv, DAY 0", "value": "351 ± 20", "unit": "mm^3"}, {"measurement": "tumor volume (mm^3 ± SEM)", "setting": "N87 gastric xenografts; Dose 3 mg/kg Q4dx4 iv, DAY 4", "value": "545 ± 37", "unit": "mm^3"}, {"measurement": "tumor volume (mm^3 ± SEM)", "setting": "N87 gastric xenografts; Dose 3 mg/kg Q4dx4 iv, DAY 8", "value": "511 ± 31", "unit": "mm^3"}, {"measurement": "tumor volume (mm^3 ± SEM)", "setting": "N87 gastric xenografts; Dose 3 mg/kg Q4dx4 iv, DAY 11", "value": "544 ± 43", "unit": "mm^3"}, {"measurement": "tumor volume (mm^3 ± SEM)", "setting": "N87 gastric xenografts; Dose 3 mg/kg Q4dx4 iv, DAY 14", "value": "558 ± 36", "unit": "mm^3"}, {"measurement": "tumor volume (mm^3 ± SEM)", "setting": "N87 gastric xenografts; Dose 3 mg/kg Q4dx4 iv, DAY 18", "value": "494 ± 41", "unit": "mm^3"}, {"measurement": "tumor volume (mm^3 ± SEM)", "setting": "N87 gastric xenografts; Dose 3 mg/kg Q4dx4 iv, DAY 21", "value": "534 ± 41", "unit": "mm^3"}, {"measurement": "tumor volume (mm^3 ± SEM)", "setting": "N87 gastric xenografts; Dose 3 mg/kg Q4dx4 iv, DAY 25", "value": "628 ± 58", "unit": "mm^3"}, {"measurement": "tumor volume (mm^3 ± SEM)", "setting": "N87 gastric xenografts; Dose 3 mg/kg Q4dx4 iv, DAY 28", "value": "645 ± 57", "unit": "mm^3"}, {"measurement": "tumor volume (mm^3 ± SEM)", "setting": "N87 gastric xenografts; Dose 3 mg/kg Q4dx4 iv, DAY 33", "value": "730 ± 66", "unit": "mm^3"}, {"measurement": "tumor volume (mm^3 ± SEM)", "setting": "N87 gastric xenografts; Dose 3 mg/kg Q4dx4 iv, DAY 36", "value": "850 ± 74", "unit": "mm^3"}, {"measurement": "tumor volume (mm^3 ± SEM)", "setting": "N87 gastric xenografts; Dose 3 mg/kg Q4dx4 iv, DAY 39", "value": "881 ± 88", "unit": "mm^3"}, {"measurement": "tumor volume (mm^3 ± SEM)", "setting": "N87 gastric xenografts; Dose 3 mg/kg Q4dx4 iv, DAY 42", "value": "1020 ± 99", "unit": "mm^3"}, {"measurement": "tumor volume (mm^3 ± SEM)", "setting": "N87 gastric xenografts; Dose 3 mg/kg Q4dx4 iv, DAY 46", "value": "1097 ± 129", "unit": "mm^3"}, {"measurement": "tumor volume (mm^3 ± SEM)", "setting": "N87 gastric xenografts; Dose 3 mg/kg Q4dx4 iv, DAY 50", "value": "1162 ± 134", "unit": "mm^3"}, {"measurement": "tumor volume (mm^3 ± SEM)", "setting": "N87 gastric xenografts; Dose 3 mg/kg Q4dx4 iv, DAY 56", "value": "1331 ± 187", "unit": "mm^3"}, {"measurement": "tumor volume (mm^3 ± SEM)", "setting": "N87 gastric xenografts; Dose 10 mg/kg Q4dx4 iv, DAY 0", "value": "349 ± 8", "unit": "mm^3"}, {"measurement": "tumor volume (mm^3 ± SEM)", "setting": "N87 gastric xenografts; Dose 10 mg/kg Q4dx4 iv, DAY 4", "value": "468 ± 18", "unit": "mm^3"}, {"measurement": "tumor volume (mm^3 ± SEM)", "setting": "N87 gastric xenografts; Dose 10 mg/kg Q4dx4 iv, DAY 8", "value": "351 ± 24", "unit": "mm^3"}, {"measurement": "tumor volume (mm^3 ± SEM)", "setting": "N87 gastric xenografts; Dose 10 mg/kg Q4dx4 iv, DAY 11", "value": "316 ± 25", "unit": "mm^3"}, {"measurement": "tumor volume (mm^3 ± SEM)", "setting": "N87 gastric xenografts; Dose 10 mg/kg Q4dx4 iv, DAY 14", "value": "269 ± 27", "unit": "mm^3"}, {"measurement": "tumor volume (mm^3 ± SEM)", "setting": "N87 gastric xenografts; Dose 10 mg/kg Q4dx4 iv, DAY 18", "value": "224 ± 26", "unit": "mm^3"}, {"measurement": "tumor volume (mm^3 ± SEM)", "setting": "N87 gastric xenografts; Dose 10 mg/kg Q4dx4 iv, DAY 21", "value": "192 ± 19", "unit": "mm^3"}, {"measurement": "tumor volume (mm^3 ± SEM)", "setting": "N87 gastric xenografts; Dose 10 mg/kg Q4dx4 iv, DAY 25", "value": "227 ± 32", "unit": "mm^3"}, {"measurement": "tumor volume (mm^3 ± SEM)", "setting": "N87 gastric xenografts; Dose 10 mg/kg Q4dx4 iv, DAY 28", "value": "244 ± 35", "unit": "mm^3"}, {"measurement": "tumor volume (mm^3 ± SEM)", "setting": "N87 gastric xenografts; Dose 10 mg/kg Q4dx4 iv, DAY 33", "value": "267 ± 52", "unit": "mm^3"}, {"measurement": "tumor volume (mm^3 ± SEM)", "setting": "N87 gastric xenografts; Dose 10 mg/kg Q4dx4 iv, DAY 36", "value": "300 ± 64", "unit": "mm^3"}, {"measurement": "tumor volume (mm^3 ± SEM)", "setting": "N87 gastric xenografts; Dose 10 mg/kg Q4dx4 iv, DAY 39", "value": "323 ± 69", "unit": "mm^3"}, {"measurement": "tumor volume (mm^3 ± SEM)", "setting": "N87 gastric xenografts; Dose 10 mg/kg Q4dx4 iv, DAY 42", "value": "350 ± 78", "unit": "mm^3"}, {"measurement": "tumor volume (mm^3 ± SEM)", "setting": "N87 gastric xenografts; Dose 10 mg/kg Q4dx4 iv, DAY 46", "value": "380 ± 78", "unit": "mm^3"}, {"measurement": "tumor volume (mm^3 ± SEM)", "setting": "N87 gastric xenografts; Dose 10 mg/kg Q4dx4 iv, DAY 50", "value": "415 ± 77", "unit": "mm^3"}, {"measurement": "tumor volume (mm^3 ± SEM)", "setting": "N87 gastric xenografts; Dose 10 mg/kg Q4dx4 iv, DAY 56", "value": "504 ± 111", "unit": "mm^3"}, {"measurement": "tumor volume (mm^3 ± SEM)", "setting": "N87 gastric xenografts; Dose 10 mg/kg Q4dx4 iv, DAY 63", "value": "581 ± 121", "unit": "mm^3"}, {"measurement": "tumor volume (mm^3 ± SEM)", "setting": "N87 gastric xenografts; Dose 10 mg/kg Q4dx4 iv, DAY 70", "value": "726 ± 163", "unit": "mm^3"}, {"measurement": "tumor volume (mm^3 ± SEM)", "setting": "N87 gastric xenografts; Dose 10 mg/kg Q4dx4 iv, DAY 77", "value": "797 ± 184", "unit": "mm^3"}, {"measurement": "effect on growth of MDA-MB-468 breast xenografts (in words)", "setting": "[1]", "value": "inhibited growth of MDA-MB-468 breast xenografts in a dose-dependent manner"}]}]}
